# Measurements as given in patent US10130604B2, “Composition and method for treating neurodegenerative disease” (priority 2012, dated 2018).
# Read-outs that look alike come from different tables or passages of the source.
# How the values were obtained:
# DJ-1 [1] = details: vs age-matched mice without PB
# α-synuclein [2] = details: C57BL/6 mice, drinking water, two weeks
# α-synuclein [3] = tested on: α-synuclein
# DJ-1 [4] = details: HEK293 reporter cells, 48 hr treatment
# DJ-1 [5] = tested on: DJ-1
# DJ-1 [6] = details: N27 cells, two days treatment, Western blot
# DJ-1 [7] = tested on: DJ-1; remark: listed apart in the source
# human α-synuclein = details: LB509 immunostaining
compound,measurement,setting,value
O=C([O-])CCCc1ccccc1.[Na+] [sodium phenylbutyrate],"brain DJ-1 protein levels, young and old transgenic mice",DJ-1 [1],significantly increased
same,α-synuclein concentrations in brain,α-synuclein [2],not changed
same,"α-synuclein oligomer accumulation in brain, 10-month old Young transgenic animals",α-synuclein [3]; Western blot,minimal
same,"α-synuclein oligomer formation in brain, 15-month old transgenic mouse","α-synuclein [3]; cortex, striatum and hippocampus, Western blot",dramatically reduced oligomer formation
same,"ratio of α-synuclein oligomer to monomer, old transgenic mice",α-synuclein [3]; vs Old w/o PB,dramatically reduced
same,DJ-1 protein levels,DJ-1 [4],increased
same,brain DJ-1 levels,"DJ-1 [5]; C57BL/6 mice, drinking water, two weeks, vs control",significantly increased DJ-1 levels
same,time course of brain DJ-1 during chronic administration,"DJ-1 [5]; drinking water for 1, 2 and 3 months, data not shown",reached plateau values after two weeks
same,increase in brain DJ-1 levels,DJ-1 [5]; mice,260%
same,DJ-1 protein levels,DJ-1 [6],300 % of control
same,"DJ-1 gene expression, combination with A53T","DJ-1 [7]; A53T mutant human alpha-synuclein overexpression, vs A53T alone",even greater increase
same,increase in DJ-1 mRNA,"DJ-1 [7]; N27 dopamine neurons, phenylbutyrate alone",50 fold
same,"increase in DJ-1 mRNA, combination with H2O2","DJ-1 [7]; pretreated 48 hours, then H2O2",256 fold
same,"number of neurons with Lewy body-like inclusions, young mice",human α-synuclein,little effect
same,"number of neurons with Lewy body-like inclusions, old mice",human α-synuclein; vs vehicle,greatly reduced the number of neurons with Lewy body-like inclusions
